Assay results published in ChEMBL document CHEMBL2074233, “Expression and pharmacological profile of the human organic cation transporters hOCT1, hOCT2 and hOCT3” (Br J Pharmacol, 2002).

Target: T1, Solute carrier family 22 member 2 (Homo sapiens, UniProt O15244)
T1 sequence (O15244 whole entry): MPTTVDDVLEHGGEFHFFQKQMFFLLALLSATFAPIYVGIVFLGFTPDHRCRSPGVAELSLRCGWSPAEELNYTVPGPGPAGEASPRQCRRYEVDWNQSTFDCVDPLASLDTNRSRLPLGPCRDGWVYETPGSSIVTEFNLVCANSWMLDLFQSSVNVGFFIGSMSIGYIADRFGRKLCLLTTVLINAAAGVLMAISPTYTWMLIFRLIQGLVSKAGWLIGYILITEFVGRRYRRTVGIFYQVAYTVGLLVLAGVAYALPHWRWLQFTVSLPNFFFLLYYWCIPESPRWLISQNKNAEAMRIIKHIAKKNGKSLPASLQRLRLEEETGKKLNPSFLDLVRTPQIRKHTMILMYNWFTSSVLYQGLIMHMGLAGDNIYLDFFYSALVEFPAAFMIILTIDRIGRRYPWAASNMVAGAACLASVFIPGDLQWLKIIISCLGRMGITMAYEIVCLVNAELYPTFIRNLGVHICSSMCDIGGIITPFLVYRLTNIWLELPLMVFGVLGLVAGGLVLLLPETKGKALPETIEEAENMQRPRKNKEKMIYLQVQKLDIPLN
Assay: TP_TRANSPORTER: inhibition of MPP+ uptake (MPP+: 0.025 uM) in OCT2-expressing HEK293 cells

SMILES	IC50 [µM]
CC(COc1ccccc1)N(CCCl)Cc1ccccc1 (configuration not stated) [PHENOXYBENZAMINE]	4.9
COc1cc2nc(N3CCN(C(=O)c4ccco4)CC3)nc(N)c2cc1OC [PRAZOSIN]	> 100
